Literature values as cited in US20220354840A1, “NICOTINE POUCH” (Enorama Pharma AB, priority 2019, published 2022).

Conditions: at 25° C.; cited from earlier work

CC(C)[C@@H]1CC[C@@H](C)C[C@H]1O [L-Menthol]
Solubility in water: 0.49 mg/ml at 25 °C
